US9468650B2, “Inhibition of endosomal toll-like receptor activation” (DUKE UNIVERSITY, priority 2009, dated 2016)

Assays:
[1] = system: mammalian cells; conditions: cited from earlier work
[2] = system: Raw264.7 cells

Poly-L-lysine [Poly L-lysine]
induction of apoptosis of mammalian cells [1]: significant apoptosis
concentration inducing over 50% cell death [2]: approximately 20 μg/ml
